{"sequences": {"note": "Amino acid sequences for entries named in this document (tags omitted).", "UniProt P47746, whole entry": "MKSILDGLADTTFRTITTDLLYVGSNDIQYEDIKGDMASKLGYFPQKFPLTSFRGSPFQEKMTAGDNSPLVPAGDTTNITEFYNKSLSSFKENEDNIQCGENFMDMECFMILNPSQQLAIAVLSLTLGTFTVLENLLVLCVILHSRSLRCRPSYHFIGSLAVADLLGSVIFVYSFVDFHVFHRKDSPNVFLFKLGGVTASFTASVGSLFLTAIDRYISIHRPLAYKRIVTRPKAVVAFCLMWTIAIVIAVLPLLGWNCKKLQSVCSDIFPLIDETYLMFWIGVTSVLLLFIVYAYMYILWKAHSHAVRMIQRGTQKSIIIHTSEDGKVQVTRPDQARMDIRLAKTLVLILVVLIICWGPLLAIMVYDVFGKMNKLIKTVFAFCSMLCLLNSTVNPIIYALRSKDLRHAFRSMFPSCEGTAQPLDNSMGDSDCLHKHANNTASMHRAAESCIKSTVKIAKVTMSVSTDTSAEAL"}, "source": "patent US20220168230A1", "about": "“NANOPARTICLE MEDIATED THERAPY” (Yale University, priority 2019, published 2022)", "biological_target": "CB1 (Mus musculus, UniProt P47746)", "assay": "In vivo blocking study in MCAO mice", "conditions": "SR141716A intravenous 30 minutes before IR780-loaded BA NPs, 24 hours, FIG. 3E"}
{"smiles": "Cc1c(C(=O)NN2CCCCC2)nn(-c2ccc(Cl)cc2Cl)c1-c1ccc(Cl)cc1", "note": "[SR141716A]", "values": [{"measurement": "reduction of uptake of BA NPs in the brain", "value": 34, "unit": "%"}]}
